The values below come from ChEMBL document CHEMBL4477241, “Structure-Activity Relationship Studies for Enhancer of Zeste Homologue 2 (EZH2) and Enhancer of Zeste Homologue 1 (EZH1) Inhibitors” (J Med Chem, 2016).

Amino acid sequences for entries named in this document (tags omitted). A change or cut given only in a name is not applied to a line headed by its entry.
UniProt O75530: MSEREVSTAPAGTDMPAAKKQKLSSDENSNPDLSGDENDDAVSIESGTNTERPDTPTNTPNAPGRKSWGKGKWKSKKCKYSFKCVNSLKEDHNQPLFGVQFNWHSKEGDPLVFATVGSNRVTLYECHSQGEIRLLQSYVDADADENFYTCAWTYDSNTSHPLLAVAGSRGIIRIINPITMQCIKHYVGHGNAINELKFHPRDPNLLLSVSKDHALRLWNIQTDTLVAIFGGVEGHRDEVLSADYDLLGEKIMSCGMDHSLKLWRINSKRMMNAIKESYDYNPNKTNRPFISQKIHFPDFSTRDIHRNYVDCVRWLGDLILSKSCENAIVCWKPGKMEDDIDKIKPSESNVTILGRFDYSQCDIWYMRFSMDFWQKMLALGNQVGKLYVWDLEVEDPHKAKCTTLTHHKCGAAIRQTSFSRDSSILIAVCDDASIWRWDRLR
UniProt Q15022: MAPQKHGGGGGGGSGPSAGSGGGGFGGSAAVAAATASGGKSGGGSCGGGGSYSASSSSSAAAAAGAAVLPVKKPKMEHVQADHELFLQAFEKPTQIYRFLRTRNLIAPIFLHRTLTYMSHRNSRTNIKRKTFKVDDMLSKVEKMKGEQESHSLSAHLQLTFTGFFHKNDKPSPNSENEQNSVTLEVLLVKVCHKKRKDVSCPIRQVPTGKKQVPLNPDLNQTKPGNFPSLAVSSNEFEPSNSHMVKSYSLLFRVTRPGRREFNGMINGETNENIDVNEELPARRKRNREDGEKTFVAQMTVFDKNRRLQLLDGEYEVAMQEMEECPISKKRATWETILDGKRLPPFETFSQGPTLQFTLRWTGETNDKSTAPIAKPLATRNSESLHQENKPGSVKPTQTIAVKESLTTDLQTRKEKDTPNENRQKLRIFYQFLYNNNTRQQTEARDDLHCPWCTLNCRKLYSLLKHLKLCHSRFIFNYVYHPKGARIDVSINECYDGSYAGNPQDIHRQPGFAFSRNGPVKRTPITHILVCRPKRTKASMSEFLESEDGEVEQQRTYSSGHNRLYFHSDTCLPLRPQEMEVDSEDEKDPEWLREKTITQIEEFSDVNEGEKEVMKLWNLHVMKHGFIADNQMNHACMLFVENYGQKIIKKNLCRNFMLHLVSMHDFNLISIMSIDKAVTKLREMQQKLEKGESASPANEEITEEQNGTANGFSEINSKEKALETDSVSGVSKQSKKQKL
UniProt Q15910, whole entry: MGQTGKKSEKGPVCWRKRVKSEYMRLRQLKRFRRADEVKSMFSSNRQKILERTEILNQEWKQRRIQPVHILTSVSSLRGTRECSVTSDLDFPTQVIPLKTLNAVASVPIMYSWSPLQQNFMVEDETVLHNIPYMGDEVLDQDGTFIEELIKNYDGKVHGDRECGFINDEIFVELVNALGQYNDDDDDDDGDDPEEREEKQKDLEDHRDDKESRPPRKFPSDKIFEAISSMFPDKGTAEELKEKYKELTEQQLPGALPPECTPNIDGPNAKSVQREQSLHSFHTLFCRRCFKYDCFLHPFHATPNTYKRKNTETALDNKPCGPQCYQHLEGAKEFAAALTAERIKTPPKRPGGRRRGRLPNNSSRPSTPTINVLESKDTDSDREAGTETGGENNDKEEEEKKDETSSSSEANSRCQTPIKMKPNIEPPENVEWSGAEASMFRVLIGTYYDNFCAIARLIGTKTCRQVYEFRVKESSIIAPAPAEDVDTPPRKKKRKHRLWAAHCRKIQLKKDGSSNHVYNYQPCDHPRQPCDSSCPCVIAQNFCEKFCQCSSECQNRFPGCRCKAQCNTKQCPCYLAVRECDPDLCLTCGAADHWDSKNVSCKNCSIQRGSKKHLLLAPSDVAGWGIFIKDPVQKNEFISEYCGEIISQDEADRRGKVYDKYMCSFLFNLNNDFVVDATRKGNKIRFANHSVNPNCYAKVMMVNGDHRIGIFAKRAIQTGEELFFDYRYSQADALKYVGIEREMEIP

The target in this assay is Histone-lysine N-methyltransferase EZH2 (Homo sapiens, UniProt O75530+Q15022+Q15910). The assay can be described thus: Inhibition of EZH2 histone methyltransferase activity of EZH2/EED/SUZ12 protein complex (unknown origin) using histone H3 peptide as substrate (21 to 44 residues) in presence of [3H]-S-adenosylmethionine after 2 hrs by scintillation proximity assay. Summed up:
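20 nM EZH2 trimeric complex with 2 μM 3H-SAM and 1 μM biotinylated H3(21–44) in 20 mM Tris-HCl pH 8, 5 mM DTT, 0.01% Triton X-100. Incubated 1 h at 23 °C, quenched with guanidine hydrochloride, then 2 h streptavidin flash-plate capture. Activity scaled between no-compound and no-enzyme counts. Compounds titrated 0.3 nM–5 μM in triplicate; IC50 by four-parameter logistic fit.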
(In general: SPA uses beads or plates that emit light when radiolabelled molecules are held near them.)

Structures are written as SMILES. pIC50: −log10 of the molar value.

Take `Cc1cc(C)c(CNC(=O)c2cc(-c3ccc(N4CCN(C(C)C)CC4)nc3)cc3c2cnn3C(C)C)c(=O)[nH]1`: the pIC50 is 7.92.

The pIC50 is the negative decadic logarithm of the IC50, by convention in mol/L.
